Consider 1 compound from patent publication US9790262B2, “Compositions comprising glucagon analogs and methods of making and using the same” (LONGEVITY BIOTECH, INC., priority 2011, dated 2017).

The data set in a line: Stability in human liver microsomes. The procedure: Human liver microsomes were prepared by Absorption Systems. A reaction mixture, minus NADPH, was prepared as described below. […] In parallel, a […]. The test compound was added into the reaction mixture (0.5 mg/mL human liver microsomes; 100 mM potassium phosphate; 5 mM Magnesium chloride) at a final concentration of 1 μM. An aliquot of the reaction mixture (without cofactor) was incubated in a shaking water bath at 37° C. for 3 minutes. […] The samples were then mixed and centrifuged to precipitate microsomal proteins. […] A thermo BDS Hypersil C18 column (30×2.0 mm; 3 μm) was used for chromatography at 300 μL/minute with an aqueous reservoir of 90% water and 10% buffer and an organic reservoir of 90% acetonitrile with 10% buffer (each 25 mM ammonium formate buffer at pH of 3.5). Test compound samples were analyzed by orbitrap. The peak area response ratio to internal standard (PARR) of the compounds at 10, 20, 30, and 60 minutes was compared to the PARR at time 0 to determine the percent of test compound remaining at each timepoint. After the final time point, fluorimetry is used to confirm the addition of NADPH to the reaction mixture. Half-life was normalized of control using internal acceptance criteria. […]
Intrinsic clearance (CLint) was calculated based upon CLint=k/P, where k is the elimination rate constant and P is the protein concentration in the incubation.
On the technique in general: Liver microsomes are a subcellular fraction often used to study metabolism.

`C[C@]12CC[C@H]3[C@@H](CCC4=CC(=O)CC[C@@]43C)[C@@H]1CC[C@@H]2O` [Testosterone, testosterone] showed a half-life at 1 μM of 13.6 min.

As usually defined, the half-life is how long it takes for the measured level to halve. Low values mean fast loss, high ones slow loss.
